The target of experiment [1] is T1, Mu-type opioid receptor (Homo sapiens, UniProt P35372).
The target of experiment [2] is T2, Delta-type opioid receptor (Homo sapiens, UniProt P41143).
Experiment [3] has as its target T1, Mu-type opioid receptor. The source holds these as a separate data set.
The target of experiment [4] is T2, Delta-type opioid receptor. The source holds these as a separate data set.
Experiment [5] concerns the target T3, Kappa-type opioid receptor (Homo sapiens, UniProt P41145). Conditions: sf9.
Experiment [6] deals with T3, Kappa-type opioid receptor.

Regarding `CO[C@]12CC[C@@]3(C[C@@H]1COCc1ccccc1)[C@H]1Cc4ccc(C#N)c5c4[C@@]3(CCN1C)[C@H]2O5`, the Ki in experiment [1] was found to be 147 nM; in experiment [2], 3710 nM. Further, the 50% effective concentration (EC50) in experiment [3] is 252 nM.

As for `COc1ccc2c3c1O[C@H]1[C@@]4(OC)CC[C@@]5(C[C@@H]4COCc4cccc(NCC(=O)O)c4)[C@@H](C2)N(CC2CC2)CC[C@]315`, the results for the inhibition constant Ki in experiment [1] and in experiment [2] were 83.3 nM and 119 nM, respectively. The molecule further displayed a half-maximal effective concentration (EC50) in experiment [4] of 45.7 nM.

As to `COc1ccc2c3c1O[C@H]1[C@@]4(OC)CC[C@@]5(C[C@@H]4COCc4ccc(C(=O)NCC(=O)O)cc4)[C@@H](C2)N(CC2CC2)CC[C@]315`, the figures for the Ki in experiment [1] and in experiment [5] were 308 nM and 435 nM, respectively. Further, the midpoint of the response in experiment [3], the EC50, lay at 1290 nM.

Regarding `COCCOCCOCCOC[C@H]1C[C@@]23CC[C@]1(OC)[C@@H]1Oc4c(OC)ccc5c4[C@@]12CCN(CC1CC1)[C@@H]3C5`, the figures for the Ki in experiment [1], in experiment [5] and in experiment [2] were 51.1 nM, 37 nM and 3020 nM, respectively. In experiment [6], this molecule gave an EC50 of 664 nM.

With `CO[C@]12CC[C@@]3(C[C@@H]1COCc1ccccc1)[C@H]1Cc4ccc(C(O)CO)c5c4[C@@]3(CCN1CC1CC1)[C@H]2O5` (some centres not stated), the inhibition constant (Ki) in experiment [1] came to 154 nM. The EC50 was 860 nM in experiment [3] and 462 nM in experiment [6].

On to `COc1ccc2c3c1O[C@H]1[C@@]4(OC)CC[C@@]5(C[C@@H]4COCC(O)CO)[C@@H](C2)N(CC2CC2)CC[C@]315` (some centres not stated), for which, in experiment [2], the inhibitory constant (Ki) came to 3250 nM. This molecule also showed an EC50 in experiment [6] of 517 nM.

On to `CO[C@]12CC[C@@]3(C[C@@H]1COCc1ccccc1)[C@H]1Cc4ccc(OCC(=O)O)c5c4[C@@]3(CCN1CC1CC1)[C@H]2O5`, for which the EC50 in experiment [3] was found to be 336 nM; in experiment [6] it was 204 nM.

As to `CO[C@]12CC[C@@]3(C[C@@H]1CNCc1ccccc1)[C@H]1Cc4ccc(O)c5c4[C@@]3(CCN1CC1CC1)[C@H]2O5`, the Ki in experiment [1] was 37.5 nM; in experiment [2], 2430 nM. The EC50 in experiment [6] is 108 nM; in experiment [4], 431 nM.

Regarding `COc1ccc2c3c1O[C@H]1[C@@]4(OC)CC[C@@]5(C[C@@H]4COCc4ccc(OCC(=O)O)cc4)[C@@H](C2)N(CC2CC2)CC[C@]315`, the inhibitory constant (Ki) in experiment [1] worked out at 545 nM; in experiment [5], 31.6 nM; in experiment [2], 355 nM. The EC50 in experiment [6] is 202 nM; in experiment [4], 400 nM.

Take `COc1ccc2c3c1O[C@H]1[C@@]4(OC)CC[C@@]5(C[C@@H]4CNCC(=O)O)[C@@H](C2)N(CC2CC2)CC[C@]315`: the inhibition constant Ki amounted to 349 nM in experiment [1] and 51.4 nM in experiment [5]. Besides, the EC50 turned out to be 218 nM in experiment [3] and 964 nM in experiment [6].

Regarding `COCCOCCOCCOCCOCCOc1ccc(COC[C@H]2C[C@@]34CC[C@]2(OC)[C@@H]2Oc5c(OC)ccc6c5[C@@]23CCN(CC2CC2)[C@@H]4C6)cc1`, the figures for the Ki in experiment [1], in experiment [5] and in experiment [2] were 135 nM, 42.5 nM and 1000 nM, respectively.

Turning to `CO[C@]12CC[C@@]3(C[C@@H]1COCc1ccccc1)[C@H]1Cc4ccc(C(=O)O)c5c4[C@@]3(CCN1CC1CC1)[C@H]2O5`, the results for the Ki in experiment [1] and in experiment [2] were 1100 nM and 3000 nM, respectively. This molecule also registered a 50% effective concentration (EC50) in experiment [6] of 288 nM.

Regarding `CO[C@]12CC[C@@]3(C[C@@H]1COCc1ccccc1)[C@H]1Cc4ccc(Br)c5c4[C@@]3(CCN1CC1CC1)[C@H]2O5`, in experiment [1], the affinity corresponds to a Ki of 49.3 nM. Also, the results for the EC50 in experiment [3] and in experiment [4] were 267 nM and 135 nM, respectively.

In experiment [2], `COc1ccc2c3c1O[C@H]1[C@@]4(OC)CC[C@@]5(C[C@@H]4COCc4ccccc4)[C@@H](C2)N(CC(N)=O)CC[C@]315` gave an inhibitory constant (Ki) of 10600 nM. Also, the EC50 in experiment [3] stood at 874 nM.

In experiment [1], `COc1ccc2c3c1O[C@H]1[C@@]4(OC)CC[C@@]5(C[C@@H]4COCC(N)=O)[C@@H](C2)N(CC2CC2)CC[C@]315` registered a Ki of 210 nM. Besides, the half-maximal effective concentration (EC50) in experiment [3] is 1130 nM; in experiment [6], 1440 nM.

In experiment [5], `COc1ccc2c3c1O[C@H]1[C@@]4(OC)CC[C@@]5(C[C@@H]4CNCC(N)=O)[C@@H](C2)N(CC2CC2)CC[C@]315` returned a Ki of 15.8 nM. Besides, the concentration for a half-maximal effect (EC50) in experiment [3] was 581 nM; in experiment [6] it was 1250 nM.

The molecule `COc1ccc2c3c1O[C@H]1[C@@]4(OC)CC[C@@]5(C[C@@H]4COC(=O)[C@@H](N)C(C)O)[C@@H](C2)N(CC2CC2)CC[C@]315` (some centres not stated) showed an inhibition constant (Ki) in experiment [1] of 60.1 nM. The EC50 in experiment [3] stood at 79.3 nM; in experiment [6], 47.6 nM.

`COc1ccc2c3c1O[C@H]1[C@@]4(OC)CC[C@@]5(C[C@@H]4CSc4nc6ccccc6s4)[C@@H](C2)N(C)CC[C@]315` showed a Ki in experiment [1] of 149 nM. Further, the EC50 was 503 nM in experiment [3], 577 nM in experiment [6] and 556 nM in experiment [4].

`CO[C@]12CC[C@@]3(C[C@@H]1COCc1ccccc1)[C@H]1Cc4ccc(C(=O)O)c5c4[C@@]3(CCN1C)[C@H]2O5`: the Ki in experiment [1] was 54.2 nM; in experiment [2] it was 13400 nM. Moreover, the figures for the concentration for a half-maximal effect (EC50) in experiment [3] and in experiment [6] were 632 nM and 156 nM, respectively.

For the molecule `COCCOCCOCCOCCOCCOC[C@H]1C[C@@]23CC[C@]1(OC)[C@@H]1Oc4c(OC)ccc5c4[C@@]12CCN(CC1CC1)[C@@H]3C5`, the Ki in experiment [1] came out at 216 nM; in experiment [2], 5530 nM. This molecule gave a half-maximal effective concentration (EC50) in experiment [6] of 817 nM.

Consider `COc1ccc2c3c1O[C@H]1[C@@]4(OC)CC[C@@]5(C[C@@H]4CSc4nc6ccccc6s4)[C@@H](C2)N(CC2CC2)CC[C@]315`, for which the figures for the Ki in experiment [1] and in experiment [2] were 50 nM and 468 nM, respectively. Besides, the concentration for a half-maximal effect (EC50) in experiment [6] stood at 63.8 nM; in experiment [4] it was 211 nM.

Turning to `COc1ccc2c3c1O[C@H]1[C@@]4(OC)CC[C@@]5(C[C@@H]4CSc4nc(C)ns4)[C@@H](C2)N(CC2CC2)CC[C@]315`, in experiment [1], affinity was put at a Ki of 116 nM. For the same molecule, the EC50 in experiment [6] worked out at 890 nM; in experiment [4], 640 nM.

For `COc1ccc2c3c1O[C@H]1[C@@]4(OC)CC[C@@]5(C[C@@H]4COCc4c(C)noc4C)[C@@H](C2)N(CC2CC2)CC[C@]315`, the results for the inhibition constant (Ki) in experiment [1] and in experiment [2] were 92.7 nM and 180 nM, respectively. Also, the EC50 in experiment [3] worked out at 127 nM; in experiment [6] it was 21.1 nM; in experiment [4], 229 nM.

In the case of `COc1ccc2c3c1O[C@H]1[C@@]4(OC)CC[C@@]5(C[C@@H]4COCc4ccccc4)[C@@H](C2)N(CCC(N)=O)CC[C@]315`, the figures for the Ki in experiment [1] and in experiment [2] were 383 nM and 1480 nM, respectively. Moreover, the EC50 in experiment [3] is 1510 nM; in experiment [6] it was 51.9 nM.

Turning to `COc1ccc2c3c1O[C@H]1[C@@]4(OC)CC[C@@]5(C[C@@H]4COCc4ccccc4)[C@@H](C2)N(CCC(=O)O)CC[C@]315`, the Ki in experiment [1] is 850 nM; in experiment [5], 64.5 nM; in experiment [2], 17000 nM. For the same molecule, the figures for the EC50 in experiment [3] and in experiment [6] were 1400 nM and 513 nM, respectively.

Take `COCCOCCOCCOc1ccc(COC[C@H]2C[C@@]34CC[C@]2(OC)[C@@H]2Oc5c(OC)ccc6c5[C@@]23CCN(CC2CC2)[C@@H]4C6)cc1`: the Ki in experiment [1] was 87.9 nM; in experiment [5], 47.3 nM; in experiment [2] it was 1980 nM. The response in experiment [6] was half-maximal at 1640 nM (EC50).

With `COc1ccc2c3c1O[C@H]1[C@@]4(OC)CC[C@@]5(C[C@@H]4CSc4nncs4)[C@@H](C2)N(CC2CC2)CC[C@]315`, the Ki amounted to 188 nM in experiment [1] and 1730 nM in experiment [2]. Moreover, the response in experiment [6] was half-maximal at 192 nM (EC50).

For `CO[C@]12CC[C@@]3(C[C@@H]1COCc1ccccc1)[C@H]1Cc4ccc(NC(C)=O)c5c4[C@@]3(CCN1C)[C@H]2O5`, the Ki in experiment [1] was determined as 133 nM; in experiment [5], 15.2 nM. Further, the concentration for a half-maximal effect (EC50) in experiment [3] is 694 nM; in experiment [6] it was 951 nM.

Turning to `COc1ccc2c3c1O[C@H]1[C@@]4(OC)CC[C@@]5(C[C@@H]4CSc4nc(C)ns4)[C@@H](C2)N(C)CC[C@]315`, the values for the Ki in experiment [1], in experiment [5] and in experiment [2] were 1540 nM, 400 nM and 9900 nM, respectively.

For the molecule `CO[C@]12CC[C@@]3(C[C@@H]1COCc1ccccc1)[C@H]1Cc4ccc(C#N)c5c4[C@@]3(CCN1CC1CC1)[C@H]2O5`, the Ki in experiment [1] worked out at 82.5 nM; in experiment [5], 0.07 nM. For the same molecule, the results for the concentration giving a half-maximal response (EC50) in experiment [3] and in experiment [6] were 215 nM and 27.7 nM, respectively.

For the molecule `COc1ccc2c3c1O[C@H]1[C@@]4(OC)CC[C@@]5(C[C@@H]4COC(=O)[C@H](C)N)[C@@H](C2)N(CC2CC2)CC[C@]315`, the Ki in experiment [1] was 148 nM; in experiment [5], 6.63 nM; in experiment [2], 1700 nM. In experiment [6], it took 335 nM to reach a half-maximal effect (EC50).

Usually Ki stands for a dissociation constant, usually derived from enzyme kinetics or from competition with a known ligand. Low readings indicate a stronger hold on the target, high ones a looser hold on the target. For orientation: EC50 means the concentration at which the effect is half-maximal.

(Values after ChEMBL document CHEMBL3886452, “Buprenorphine analogs” (2015).)
